Screening data deposited in PubChem by several laboratories.
This is a sample that favours compounds with a hit; in the whole collection about 2.1% have one here.
ERp5 block: inhibitors of ERp5-driven insulin aggregation, primary screen, biochemical, turbidity, absorbance 650 nm, single point | Protein disulfide-isomerase A6 (Homo sapiens), Q15084 | 90 min | inhibition, % at 9.99 µM | 350,000 compounds, 0.05% hits;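 active = mean replicate inhibition above about 25%, with every replicate also reaching it, limit read from the data, passing the limit was not always enough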
Yeast UUG start: yeast start codon fidelity modulation; activity score, % at 18.7 µM; actives 0.13% (n = 350,000); S. cerevisiae UUG-firefly luciferase reporter, luminescence/redox ratio; AID 602363;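 active means replicate mean at a twofold rise or more, about +100% in these data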;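 further: firefly luciferase made from a UUG start codon reports start codon fidelity; reporter light over untreated wells divided by growth signal over untreated wells; some hits fall short of that in this replicate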
Rev-erbA mod: modulators of Rev-erb alpha DNA binding, primary screen, biochemical, FITC-DNA, fluorescence polarization, uHTS. Nuclear receptor subfamily 1 group D member 1 (Homo sapiens), P20393. activity, % at 10 µM. Rev-erbα–FITC-DNA binding, 90 min. AID 1259318, 2017. 370,000 compounds, 0.79% hits;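 active = activity above about 14%, limit read from the data; passing the limit was not always enough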;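 note: 0% = DMSO wells with 35 nM protein and 100% = DMSO wells with 750 nM protein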
SMARCA2 act: SMARCA2 (BRM) function activators, primary screen, cell-based, luminescence, high throughput | MG213 cells, MMTV-luciferase reporter, dexamethasone, overnight | activation, % at 9.1 µM | 370,000 compounds, 1% hits; in the data active = activation above about 7.8%;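 note: 0% = vehicle wells and 100% = reference activator wells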
INS-1E GSIS act: GLuc luminescence reporter in INS-1E cells, primary screen for activators of glucose-dependent secretion of insulin; INS-1E GLuc reporter insulin secretion, 2-3 h; 370,000 compounds, 0.61% hits; activation, % at 16.6 µM;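 active = lowest replicate activation of at least 40%, so every replicate reaches that level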;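 note: 0% = median of neutral control wells and 100% = median of IBMX positive control wells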
PDI turbidity: inhibitors of human PDI, primary screen, biochemical, turbidity, single point, plate reader. inhibition, % at 10 µM. 350,000 compounds, 0.052% hits. PDI insulin aggregation turbidity, A650, 90 min. Protein disulfide-isomerase (Homo sapiens), P07237;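 active = mean inhibition across replicates of 30% or more, whatever share of single replicates reach that level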
SMARCA2 conf: SMARCA2 (BRM) function activators, confirmation, cell-based, luminescence, triplicate | shares compounds with SMARCA2 act | MG213 cells, MMTV-luciferase with dexamethasone, overnight; MG213 cells expressing E1A, Rb sequestered; DMSO wells 0%, reference activator 100% | activation, % at 9.1 µM | 3,500 compounds, 30% hits;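 active = activation above its plate's cutoff, the mean activation of tested wells plus 3 SD, cut at about 7.9% in these data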
VP16 Luc act: GAL4-VP16 luciferase reporter activation, counter-screen for SMARCA2 (BRM) activator project, cell-based, pG5luc, luminescence, high throughput; shares compounds with SMARCA2 act; HEK293 GAL4-VP16 pG5luc reporter; scaled: DMSO wells 0%, SAHA wells 100%; activation, % at 9.1 µM; AID 686939, 2013; 3,500 compounds, 41% hits;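 active = activation above the solvent-only control well mean plus 3 SD, averaged across control plates, cut at about 5.2% in these data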
Active calls of the source: *; / = no result given.

Below each SMILES: ERp5 block, Yeast UUG start, Rev-erbA mod, SMARCA2 act, INS-1E GSIS act, PDI turbidity, SMARCA2 conf, VP16 Luc act
[1] CO[C@H]1CC[C@H]2CCN(C)C(=O)C[C@@H](c3ccccc3)CN(C)C(=O)c3cc(C#N)ccc3OC[C@H]1O2
  1, /, /, /, 1, /, /, /
[2] Nc1c2ccccc2nc2ccccc12
  2, 25, 2, 55*, -6, -3, 110*, 2
[3] Nc1c2c(nc3ccccc13)CCCC2
  -4, 4, -5, -4, /, 11, /, /
[4] Cc1nc(NC(=O)Nc2ccc(Cl)cc2)sc1C
  12, -16, 1, 8.6*, 6, 6, 3, 10*
[5] Cc1nc(NC(=O)c2ccccc2)sc1C
  5, -24, -1, 8.2*, 13, -1, 7, 7.8*
[6] CC(C)(C)c1nnc(NC(=O)Nc2ccc(Cl)cc2)s1
  -4, /, -5, 1, -15, 7, /, /
[7] CN1C(=O)c2cc(NC(=O)NC3CCCC3)ccc2OC[C@@H]2O[C@@H](CC(=O)NCC3CC3)CC[C@@H]21
  -3, /, /, /, -1, /, /, /
[8] Cc1cccc(/C=N/n2c(COc3ccccc3)n[nH]c2=S)c1
  -3, -36, 5, -2, -26, -5, /, /
[9] Cc1n[nH]c(=S)n1/N=C/c1cccc(OCc2ccccc2)c1
  -1, /, -2, 8.6*, 9, 0, -1, 2
[10] CCCC(=O)Nc1ccc2c(c1)C(=O)N(C)[C@@H]1CC[C@@H](CC(=O)N3CCc4ccccc4C3)O[C@H]1CO2
  /, 37, /, /, -1, /, /, /
[11] Cc1cc(C)cc(NC(=O)/C=C/c2ccc([N+](=O)[O-])s2)c1
  -5, /, -4, 8.8*, -11, -14, 4, 0
[12] CC(=O)c1cccc(NC(=O)/C=C/c2ccc([N+](=O)[O-])s2)c1
  2, /, -6, 4, 6, -11, /, /
[13] COC(=O)Nc1c(-c2ccccc2)nc2ccc(Cl)cn12
  0, -11, 3, 0, /, 6, /, /
[14] COC(=O)CNc1c(-c2ccccc2)nc2ccc(Br)cn12
  /, -38, 0, 14*, 26, 0, 11*, 6.8*
[15] COC(=O)Cn1c(CN2CCOCC2)nc2c1c(=O)n(C)c(=O)n2C
  -1, 0, 2, 8.3*, 3, /, 1, -1
[16] Cn1c(=O)c2c(nc(CN3CCOCC3)n2CCN2CCOCC2)n(C)c1=O
  -1, 12, 1, /, 8, 1, /, /
[17] CCOC(=O)N1CCN(S(=O)(=O)c2ccc(C(=O)Nc3sc4c(c3C#N)CCC4)cc2)CC1
  -1, -15, 2, 11*, 9, 2, -2, 1
[18] COc1cc(Nc2c3ccccc3nc3ccccc23)cc(OC)c1OC
  -2, 17, 3, 8.2*, -15, -4, 31*, 1
[19] O=C(Nc1ccccc1F)c1csc([C@@H]2C[C@H](O)[C@@H](CO)O2)n1
  -4, -19, -1, 11*, 8, 16, 0, -1
[20] O=C(Nc1cccc2ccccc12)c1csc([C@@H]2C[C@H](O)[C@@H](CO)O2)n1
  -2, -4, 0, -4, -3, 3, /, /
[21] Clc1ccccc1CO/N=C1\CCCc2nonc21
  /, -18, 11, 0, -16, -1, /, /
[22] Clc1ccc(CO/N=C2\CCCc3nonc32)cc1
  /, 2, 9, 13*, 2, 6, 8.1*, 4
[23] Cc1noc(C)c1NC(=O)Nc1ccc2c(c1)CC(=O)N([C@H](C)CO)C[C@H](C)[C@@H](CN(C)C(=O)Nc1cccc3ccccc13)O2
  /, /, /, /, 0, /, /, /
[24] Cn1cnnc1SCC(=O)Nc1ccc2nc(SCc3ccccc3F)sc2c1
  -2, -20, 5, 9.9*, -2, 0, 3, 9.0*
[25] O=C(CSc1nc2ccc(NC(=O)CSc3nnnn3-c3ccccc3)cc2s1)Nc1ccccc1
  /, -14, 10, 1, -21, -3, /, /
[26] COC(=O)C1=C(C)OC(N)=C(C#N)C1c1ccccc1 (stereo not drawn)
  /, -18, -3, 1, /, -6, /, /
[27] COC(=O)C1=C(C)OC(N)=C(C#N)C1c1c(C)nn(-c2ccccc2)c1Cl (stereo not drawn)
  /, -12, 0, 11*, /, -5, -1, 1
[28] C/C(=N\NC(N)=S)c1ccccc1
  2, -38, 6, 8.0*, 32, 12, 0, 0
[29] NC(=S)NN=C(c1ccccc1)c1ccccc1
  3, -34, 3, -2, 15, -6, /, /
[30] C[C@H](CO)N1C[C@H](C)[C@H](CN(C)S(=O)(=O)c2cn(C)cn2)Oc2ccc(NC(=O)C3CCCCC3)cc2C1=O
  -3, 6, /, /, 8, /, /, /

Rewritten field by field: entries from further up
11: Cc1cc(C)cc(NC(=O)/C=C/c2ccc([N+](=O)[O-])s2)c1
- ERp5 block = -5
- Yeast UUG start = /
- Rev-erbA mod = -4
- SMARCA2 act = 8.8*
- INS-1E GSIS act = -11
- PDI turbidity = -14
- SMARCA2 conf = 4
- VP16 Luc act = 0

12: CC(=O)c1cccc(NC(=O)/C=C/c2ccc([N+](=O)[O-])s2)c1
- ERp5 block = 2
- Yeast UUG start = /
- Rev-erbA mod = -6
- SMARCA2 act = 4
- INS-1E GSIS act = 6
- PDI turbidity = -11
- SMARCA2 conf = /
- VP16 Luc act = /

Compound profiles, from the list above:
Entry for CC(=O)c1cccc(NC(=O)/C=C/c2ccc([N+](=O)[O-])s2)c1 : ERp5 block: 2; Yeast UUG start: /; Rev-erbA mod: -6; SMARCA2 act: 4; INS-1E GSIS act: 6; PDI turbidity: -11; SMARCA2 conf: /; VP16 Luc act: /
Entry for O=C(Nc1ccccc1F)c1csc([C@@H]2C[C@H](O)[C@@H](CO)O2)n1 : ERp5 block: -4; Yeast UUG start: -19; Rev-erbA mod: -1; SMARCA2 act: 11*; INS-1E GSIS act: 8; PDI turbidity: 16; SMARCA2 conf: 0; VP16 Luc act: -1

The listing continues:
Below each SMILES: ERp5 block, Yeast UUG start, Rev-erbA mod, SMARCA2 act, INS-1E GSIS act, PDI turbidity, SMARCA2 conf, VP16 Luc act
[31] Clc1ccc(Nc2nc(C3CC3)cs2)cc1
  6, -18, 2, 8.2*, 10, 4, 5, 7.1*
[32] COc1ccc(-c2ccc([C@@H]3[C@H](CO)N4CCCCN(C(=O)NC(C)C)C[C@@H]34)cc2)cc1
  0, 0, /, /, -7, /, /, /
[33] Clc1ccc(-c2nc3ccc(Cl)cn3c2Cc2ccsc2)cc1
  -5, -9, -4, 11*, 5, /, 8.9*, 5
[34] COc1ccc2nc(Cl)cc(Cl)c2c1
  1, -14, 4, -2, 12, 5, /, /
[35] C=CS(=O)(=O)c1c2cc(OC)ccc2nc2ccc(OC)cc12
  9, /, -1, 15*, -34, -8, -9, 13*
[36] C[C@@H]1CN([C@H](C)CO)C(=O)c2cccc(NS(=O)(=O)c3cn(C)cn3)c2O[C@H]1CN(C)Cc1ccc2c(c1)OCO2
  6, -13, /, /, 5, /, /, /
[37] Fc1ccc(Oc2nc(-c3ccccn3)nc3ccccc23)cc1
  2, 25, -2, 9.0*, 12, -3, -5, 3
[38] COc1ccc(Oc2nc(-c3ccccn3)nc3ccccc23)cc1
  -1, -26, 0, 8.3*, 17, -2, -6, -2
[39] CC(=O)N1Cc2cc(C(=O)NCc3cc(F)cc(F)c3)nc(-c3cccc(C4=CCCC4)c3)c2[C@H]1CCO
  -8, /, /, /, /, /, /, /
[40] CC(C)CNC(=O)C1c2ccccc2Oc2ccccc21
  3, /, -9, 14*, 8, 3, -1, 1
[41] CC(C)NC(=O)C1c2ccccc2Oc2ccccc21
  -1, -9, 0, -2, 1, -1, /, /
[42] S=c1[nH]nc(-c2cc(-c3ccccc3)n[nH]2)n1/N=C/c1ccccc1
  4, -7, 0, 4, 2, -8, /, /
